Organism: Mus musculus
Assay: Blockade of morphine-induced elevation of tail-flick latency
`C=CCC1(O)CCC(c2ccc(Br)cc2)(N(C)C)CC1` (stereo not drawn) was tested, and the ED50 was over 50 mg/kg. For `CN(C)C1(c2ccc(Cl)cc2)CCC(O)(CCC2=CCCCC2)CC1` (stereo not drawn), the ED50 was over 100 mg/kg. `C=CCCCC1(O)CCC(c2ccc(Cl)cc2)(N(C)C)CC1` (stereo not drawn) gave an ED50 of over 100 mg/kg. For `CN(C)C1(c2ccc(Cl)cc2)CCC(O)(Cc2ccccc2)CC1` (stereo not drawn), the ED50 was over 100 mg/kg. Work on `CN(C)C1(c2ccc(Cl)cc2)CCC(O)(CCCc2ccccc2)CC1` (stereo not drawn) yielded an ED50 of over 100 mg/kg. `CCCC1(O)CCC(c2ccc(Cl)cc2)(N(C)C)CC1` (stereo not drawn) was tested, and the ED50 was over 100 mg/kg. `C#CC1(O)CCC(c2ccc(C)cc2)(N(C)C)CC1` (stereo not drawn) gave an ED50 of over 100 mg/kg. For `CN(C)C1(c2ccc(Cl)cc2)CCC(C)(O)CC1` (stereo not drawn), the ED50 was over 100 mg/kg. Work on `C=CCC1(O)CCC(c2ccc(Cl)cc2)(N(C)C)CC1` (stereo not drawn) yielded an ED50 of over 100 mg/kg. Work on `C=CCC1(O)CCC(c2ccc(C)cc2)(N(C)C)CC1` (stereo not drawn) yielded an ED50 of over 50 mg/kg. Compound `C=CCCC1(O)CCC(c2ccc(Cl)cc2)(N(C)C)CC1` (stereo not drawn) has an ED50 of over 100 mg/kg. Work on `CN(C)C1(c2ccc(Cl)cc2)CCC(O)(CCC2CC=CCC2)CC1` (stereo not drawn) yielded an ED50 of over 100 mg/kg. Work on `C=C1CCC(CC2(O)CCC(c3ccc(Cl)cc3)(N(C)C)CC2)CC1` (stereo not drawn) yielded an ED50 of over 100 mg/kg. With `CN(C)C1(c2ccc(Br)cc2)CCC(C)(O)CC1` (stereo not drawn) the ED50 was over 50 mg/kg. For `CN(C)C1(c2ccccc2)CCC(O)CC1` (stereo not drawn), the ED50 was over 100 mg/kg. Work on `CN(C)C1(c2ccc(Cl)cc2)CCC(O)(CCC2CCCC2)CC1` (stereo not drawn) yielded an ED50 of over 100 mg/kg. With `CN(C)C1(c2ccc(Cl)cc2)CCC(O)CC1` (stereo not drawn) the ED50 was over 6.3 mg/kg. Work on `Cc1ccc(C2(N(C)C)CCC(C)(O)CC2)cc1` (stereo not drawn) yielded an ED50 of over 100 mg/kg.

— ChEMBL document CHEMBL1121903, “4-amino-4-arylcyclohexanones and their derivatives: a novel class of analgesics. 2. Modification of the carbonyl function” (1981)
